Here are results for 25 molecules from US20250340595A1 (published 2025).

The chains behind the UniProt entries cited, without tags or fusion partners. Residues count along the entry.
UniProt P02786, 89-760 limits assumed: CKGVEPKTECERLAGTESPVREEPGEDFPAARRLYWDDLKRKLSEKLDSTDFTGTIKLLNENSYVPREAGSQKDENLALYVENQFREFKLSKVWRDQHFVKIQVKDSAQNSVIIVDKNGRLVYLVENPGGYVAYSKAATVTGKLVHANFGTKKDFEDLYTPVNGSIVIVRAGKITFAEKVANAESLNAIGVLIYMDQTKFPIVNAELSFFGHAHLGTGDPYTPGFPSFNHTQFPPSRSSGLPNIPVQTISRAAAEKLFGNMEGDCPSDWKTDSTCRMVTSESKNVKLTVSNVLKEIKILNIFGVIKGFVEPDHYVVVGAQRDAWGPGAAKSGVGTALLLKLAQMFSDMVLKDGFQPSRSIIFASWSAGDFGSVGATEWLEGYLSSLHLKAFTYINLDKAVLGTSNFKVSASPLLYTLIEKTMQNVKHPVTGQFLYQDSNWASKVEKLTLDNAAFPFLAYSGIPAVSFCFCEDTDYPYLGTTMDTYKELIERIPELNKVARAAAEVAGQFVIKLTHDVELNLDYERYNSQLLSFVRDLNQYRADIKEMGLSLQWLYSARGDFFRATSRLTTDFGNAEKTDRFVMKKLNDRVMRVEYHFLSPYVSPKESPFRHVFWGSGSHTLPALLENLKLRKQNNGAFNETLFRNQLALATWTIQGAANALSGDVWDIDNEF

For assay [1], the target named is T1, Human TfR1 protein (R&D Systems, 2474-TR or Acro Biosystems, CD1-H5243) (human, UniProt P02786 89-760). The assay is described as follows: FP competition, competitor BCY15768.
In assay [2] the target is T1, Human TfR1 protein (R&D Systems, …). Description: FP competition, competitor BCY15768. This is another data set of the same source.

Where two headings read alike, the source gives them in different places.

For orientation: Ki means the dissociation constant of the complex between target and ligand, obtained from inhibition or displacement. The low end stands for higher affinity, the high end for lower affinity. For the molecule CPQDAYLGCISWC (3 Cys on TATB; N-terminal acetyl (Ac)) [BCY15890], the affinity in assay [1], expressed as Ki, was 47 nM.
Turning to ACSPDAHXGCISYCA (3 Cys on TATB; core as printed CSPDAH[Aib]GCISYC) [BCY16037], the inhibitory constant (Ki) in assay [1] and in assay [2] was 9220 nM in each case.
ACSPDAHLGCISYCA (3 Cys on TATB; N-terminal acetyl (Ac)) [BCY15939]: the inhibition constant Ki in assay [1] and in assay [2] was 125 nM each time.
In assay [2], CSPDAHLGCISYCEPW (3 Cys on TATB; N-terminal [AzPro] azidopropyl) [BCY17874] had a Ki of 13 nM.

B1: BCY17878 (peptide)
peptide: CSXDAHLGCISYC
modifications: 3 Cys on TATB; N-terminal [AzPro] azidopropyl; core as printed CS[HyP]DAHLGCISYC
In the case of B1, affinity in assay [2] was put at a Ki of 28 nM.
Regarding CSPDAHLGCISYCK (3 Cys on TATB; N-terminal acetyl (Ac); C-terminal [K(N3)] 6-azido lysine) [BCY17868], affinity in assay [2] was put at a Ki of 23 nM.
As to NWNCSPDAHLGCISYC (3 Cys on TATB; N-terminal acetyl (Ac)) [BCY17992], the Ki in assay [2] turned out to be 11 nM. Compared with the last molecule, the Ki is about 2.1-fold lower.
Turning to ACSPDAHLGCXSYCA (3 Cys on TATB; core as printed CSPDAHLGC[Cbg]SYC) [BCY16042], the Ki in assay [1] and in assay [2] was 3450 nM each time.
For ACSPDAHLGCISYCPIVH (3 Cys on TATB) [BCY17120], the inhibition constant Ki in assay [1] and in assay [2] was 52 nM in each case.
Take ACSPDAHLGCXSYCA (3 Cys on TATB; core as printed CSPDAHLGC[Cpg]SYC) [BCY16044]: the affinity in assay [1], expressed as Ki, was 13900 nM. This counts as double-digit micromolar.
Turning to ACSPDAHLGCXSYCA (3 Cys on TATB; core as printed CSPDAHLGC[C5g]SYC) [BCY16041], the Ki in assay [1] and in assay [2] was 2190 nM in each case.
With CPPDSHLGCISYC (3 Cys on TATB; N-terminal acetyl (Ac)) [BCY15893], the inhibitory constant (Ki) in assay [1] and in assay [2] was 44 nM in each case.
On to NEVCSPDAHLGCISYCA (3 Cys on TATB) [BCY17112], for which the Ki in assay [1] and in assay [2] was 47 nM in each case.
On to CSPDAHLGCISYCEPWK (3 Cys on TATB; N-terminal acetyl (Ac); C-terminal [K(N3)] 6-azido lysine) [BCY17873], for which the affinity in assay [2], expressed as Ki, was 13 nM.
NWNCSPDAHLGCISYC (3 Cys on TATB; [NMeTrp] in N-terminal extension) [BCY18032] yielded a Ki in assay [1] of 105 nM.

B2: BCY17880 (peptide)
peptide: CSXDAHLGCISYC
modifications: 3 Cys on TATB; N-terminal [AzPro] azidopropyl; core as printed CS[Aze]DAHLGCISYC
Regarding B2, in assay [2], the affinity, expressed as Ki, was 29 nM.
For the molecule CSADDWLGCISYC (3 Cys on TATB; N-terminal acetyl (Ac)) [BCY15894], the Ki in assay [1] and in assay [2] was 392 nM throughout.
In assay [2], CSXDAHLGCISYC (3 Cys on TATB; N-terminal acetyl (Ac); core as printed CS[HyP]DAHLGCISYC) [BCY17989] had an inhibition constant Ki of 24 nM.
CPGDAHLGCISYC (3 Cys on TATB; N-terminal acetyl (Ac)) [BCY15892]: the Ki in assay [1] and in assay [2] was 63 nM in each case.
For ACSPDAHLGCISYCEPW (3 Cys on TATB) [BCY17114], the Ki in assay [2] turned out to be 32 nM.
For NWNCSPDAHLGCISYCA (3 Cys on TATB) [BCY17109], the affinity in assay [2], expressed as Ki, was 11 nM.
NWNCSPDAHLGCISYC (3 Cys on TATB; D-tryptophan [dW] in N-terminal extension) [BCY18031] came in with a Ki in assay [2] of 17 nM.

B3: BCY18035 (peptide)
peptide: NWNCSPDAHLGCISYC
modifications: 3 Cys on TATB; N-terminal acetyl (Ac); D-tryptophan [dW] in N-terminal extension
Molecule B3 came in with a Ki in assay [2] of 17 nM.
Take ACSPDAHLGCXSYCA (3 Cys on TATB; core as printed CSPDAHLGC[Chg]SYC) [BCY16043]: the inhibition constant (Ki) in assay [1] was found to be 23600 nM.
Take NWNCSPDAHLGCISYC (3 Cys on TATB; N-terminal [AzPro] azidopropyl) [BCY17872]: the Ki in assay [2] was found to be 14 nM.
